Experimental data from US20080146524A1, “Selective inhibitors of neurotensin degrading enzymes” (Solvay Pharmaceuticals B.V., priority 2006, published 2008).

Protein sequences, listed by entry. Tags and fused reporters are not part of them.
UniProt P42676, whole entry: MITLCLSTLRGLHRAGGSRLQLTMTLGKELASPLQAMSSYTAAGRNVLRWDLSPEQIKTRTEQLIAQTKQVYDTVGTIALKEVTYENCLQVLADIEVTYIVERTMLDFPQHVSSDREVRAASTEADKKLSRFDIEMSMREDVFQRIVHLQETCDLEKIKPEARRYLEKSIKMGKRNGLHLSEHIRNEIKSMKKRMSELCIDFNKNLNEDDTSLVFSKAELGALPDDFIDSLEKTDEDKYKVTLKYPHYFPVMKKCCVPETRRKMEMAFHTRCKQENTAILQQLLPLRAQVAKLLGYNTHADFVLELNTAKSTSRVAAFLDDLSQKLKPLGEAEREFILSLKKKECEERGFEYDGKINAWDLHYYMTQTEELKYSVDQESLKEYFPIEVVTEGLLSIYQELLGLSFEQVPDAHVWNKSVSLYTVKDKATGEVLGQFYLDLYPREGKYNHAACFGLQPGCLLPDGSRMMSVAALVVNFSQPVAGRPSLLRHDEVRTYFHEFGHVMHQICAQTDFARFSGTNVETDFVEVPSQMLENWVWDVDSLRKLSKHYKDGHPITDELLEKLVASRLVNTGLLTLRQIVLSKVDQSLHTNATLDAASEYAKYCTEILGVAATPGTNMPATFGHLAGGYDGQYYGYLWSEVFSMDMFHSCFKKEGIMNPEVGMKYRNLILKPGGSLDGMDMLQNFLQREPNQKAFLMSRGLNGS
UniProt P24155, whole entry: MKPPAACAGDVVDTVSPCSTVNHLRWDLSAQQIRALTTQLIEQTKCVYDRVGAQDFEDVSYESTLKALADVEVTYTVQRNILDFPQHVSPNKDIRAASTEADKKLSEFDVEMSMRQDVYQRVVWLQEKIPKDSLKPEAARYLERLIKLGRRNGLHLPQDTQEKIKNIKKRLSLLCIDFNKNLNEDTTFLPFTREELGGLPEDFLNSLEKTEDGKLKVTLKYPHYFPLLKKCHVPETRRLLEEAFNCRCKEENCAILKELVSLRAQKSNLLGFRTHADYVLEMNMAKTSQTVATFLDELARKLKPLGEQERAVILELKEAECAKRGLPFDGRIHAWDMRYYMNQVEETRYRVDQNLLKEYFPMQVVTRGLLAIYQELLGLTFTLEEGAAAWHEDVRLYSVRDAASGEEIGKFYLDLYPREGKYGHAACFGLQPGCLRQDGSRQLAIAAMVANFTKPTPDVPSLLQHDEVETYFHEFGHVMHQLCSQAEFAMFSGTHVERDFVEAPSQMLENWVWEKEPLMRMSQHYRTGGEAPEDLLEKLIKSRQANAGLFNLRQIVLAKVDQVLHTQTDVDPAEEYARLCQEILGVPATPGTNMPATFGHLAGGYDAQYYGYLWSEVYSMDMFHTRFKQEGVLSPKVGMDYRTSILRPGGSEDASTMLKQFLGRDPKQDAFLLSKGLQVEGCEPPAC

Assays:
[1] = target: Neurolysine EC 3.4.24.16 (UniProt P42676)
[2] = target: Thimet oligopeptidase EC 3.4.24.15 (UniProt P24155); assay: enzyme inhibition of Thimet oligopeptidase EC 3.4.24.15 (published methods, Dauch 1991a,b); format: biochemical

SMILES | enzyme inhibition EC 3.4.24.16 pIC50 [1] | enzyme inhibition EC 3.4.24.15 pIC50 [2]
CCC[C@H](NC(=O)[C@@H]1CSCN1C(=O)CCP(=O)(O)CCc1cccc2ccccc12)C(=O)O | 7.2 | 6.9
CCCC[C@H](NC(=O)[C@@H]1CCCN1C(=O)CCP(=O)(O)CCc1cccc2ccccc12)C(=O)O | 7.4 | 7.2
CCCC[C@H](NC(=O)[C@@H]1CCCN1C(=O)CCP(=O)(O)CCCc1ccccc1)C(=O)O | 6.3 | 6.3
CCC[C@H](NC(=O)[C@@H]1CSCN1C(=O)CCP(=O)(O)CCCc1ccccc1)C(=O)O | 5.7 | 5.1
CCC[C@H](NC(=O)[C@@H]1CSCN1C(=O)CCP(=O)(O)CCCCc1ccccc1)C(=O)O | 7.8 | 6.8
CCCC[C@H](NC(=O)[C@@H]1CCCN1C(=O)CCP(=O)(O)CCCCc1ccccc1)C(=O)O | 8.2 | 7.6
